# Binding of CDR-mutated scFvs to a peptide of the spike HR2 region

Values reported by Engelhart et al. 2022, doi:10.1038/s41597-022-01779-4 (FLAb copy).

All variants were tested on one target, the spike HR2 peptide PDVDLGDISGINAS (SARS-CoV-2).

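The starting antibody came from a phage panning campaign against this peptide. Library AAYL50 holds single substitutions and randomly drawn double and triple substitutions in the CDRs. The scFvs were displayed on barcoded MATa yeast, the peptide on MATalpha yeast. Pairs that bind mate more often; barcode pairs of the diploids are counted by sequencing. Read counts were normalised to the haploid input and turned into Kd by a linear fit to BCL2-family pairs of known affinity, for each replicate. Each pool was mated in three replicate cultures.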

The variants keep the heavy chain, the linker and the frameworks of Ab-14 (scFv order VH, a 15-residue (Gly4Ser)3 linker, VL).
VH: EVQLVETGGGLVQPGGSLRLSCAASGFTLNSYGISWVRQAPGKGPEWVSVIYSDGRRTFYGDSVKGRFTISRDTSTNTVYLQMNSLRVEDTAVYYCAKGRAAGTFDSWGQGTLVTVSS
VL: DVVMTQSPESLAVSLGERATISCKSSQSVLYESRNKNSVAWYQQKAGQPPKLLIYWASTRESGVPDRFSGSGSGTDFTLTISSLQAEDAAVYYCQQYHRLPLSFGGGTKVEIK

Each variant is given by its three light chain CDRs, as the data file delimits them; those of the parent are KSSQSVLYESRNKNSVA, WASTRES, QQYHRLPLS. The read-out is the apparent dissociation constant on a log10 scale (nM): the lower, the stronger. Averages over replicates are reported, and they cover detected replicates only. An entry "nd" has no value in the source: the pair was not observed among the diploids in any replicate. This suggests poor binding but is not conclusive. The list is sorted by this average, lowest first, undetected variants last. Three control strains display no target. For library AAYL50, 18% of the pairings with them gave a signal, with a median of 4.19 and one signal in twenty below 2.99, so weak values seen in few replicates may be background. In this assay the parent's reference entry averaged 0.65; its copy inside this library read 1.68.

CDR-L1,CDR-L2,CDR-L3,"mean, log10 nM",seen in
KSSQSVLYESRNKNSVA,DASTRRS,QTYHRLPLS,0.02,3/3
QSSQMVLYESRNKNSVA,AASTRES,QQYHRLPLS,0.04,3/3
KSSQSVLYESRNQNSVA,QASTRES,QQYHILPLS,0.15,3/3
KESQSVTYESRNKNSVA,WASTRES,QQYHRLPLS,0.48,3/3
KSSQSVLYESRNRNSVA,AAQTRES,QQYHRLPLS,0.54,3/3
KSSPSVLYESLNKNSVA,WASTRES,QQYHRLPLS,0.64,3/3
KSSQSVLYESRNYNSVA,RASTRES,QQYHRLPVS,0.70,3/3
KSSQSVLSEPRNTNSVA,WASTRES,QQYHRLPLS,0.71,3/3
KSSQSVLYESRQKNSVA,WASTRES,QQYHRLPLA,0.78,3/3
KSSQSVLYESRNKNSVA,WAVTRES,HQYHRRPLS,0.80,3/3
KSSQQVLYESRNKNSVA,WASTRES,QQYFRLPIS,0.82,3/3
KSSQSVCYEWRNANSVA,WASTRES,QQYHRLPLS,1.06,3/3
KSSSSVVYSSRNKNSVA,WASTRES,QQYHRLPLS,1.07,3/3
KKSQSVLYESRNKNAVA,MASTRES,QQYHRLPLS,1.09,3/3
KSSQSVLYESRYKNSVA,WASTRES,QSYHRFPLS,1.19,3/3
KSSQSVLYRSRNKNRVA,WASTRES,QQYHRLPLS,1.27,1/3
KKSGSVLYESRNKNSVA,WASTREE,QQYHRLPLS,1.31,3/3
KSLYSVLYESRNKNSVA,WASTRES,QQYHRLPLS,1.31,3/3
KSSQSVLRESRNKNSVA,GASTRES,QQYHYLPLS,1.36,3/3
KSSESVLYESRNYNSVA,WASTRES,QQPHRLPLS,1.64,3/3
KSSQSVLYESRNKNSVA,WASTRES,RQYHYLPLS,1.72,3/3
KSSYSVLYESRNNNSVA,WASTRES,CQYHRLPLS,1.73,3/3
KSTQSVGYESRFKNSVA,WASTRES,QQYHRLPLS,1.88,3/3
KSSQSVAYESRNKNSVA,WSSTRES,QQHHRLPLS,1.97,3/3
KSSQFVLYESRNKNSVA,WASTRNS,QQWHRLPLS,2.04,3/3
KSFQSVLYESRNKNTVA,QASTRES,QQYHRLPLS,2.07,3/3
KSMISVLYESRNKNSVA,WASTRES,QQPHRLPLS,2.26,3/3
KSSQSVLYESRNKNSVA,WAWTRES,QPYHRLPLL,2.30,2/3
KSSQSVLYESRNKNSLA,WASTRES,QQYHRLPWS,2.41,3/3
KSSQLVLYESRNPNSVA,WASTRES,QQYHRFPLS,2.44,3/3
KSSQSVLYESREKNSDA,WASTRES,QQYHRHPLS,2.48,1/3
KSSQHVLYESRTKNSVA,WASTRES,QQYHRWPLS,2.52,3/3
KSSQSVLYESRNKNSVA,WASTRIS,QQYKRLPLS,2.54,3/3
KSSQSVLYESLNCNSVA,WATTRES,QQYHRLPLS,2.64,3/3
KSSQSVLYESRNKNSVA,WAMTRRT,QQYHRLPLS,2.65,1/3
KSPQSVLYESKNKNSVA,WRSTRES,QQYHRLPLS,2.82,3/3
KSSQSVLYESRNKNSVA,WASRRES,QQHHRLPKS,3.03,1/3
HSSQSVLYKSRNKNSVA,WAATRES,QQYHRLPLS,3.11,3/3
KSSQSRPYESRNKNSVA,WASTRES,QQYHRLVLS,3.17,2/3
KSSQSVLYESRNKTSMA,WASTRES,QQYHRLPLS,3.23,3/3
KSSQSVLYESPNKNSVA,WASTNES,QQYHRNPLS,3.25,1/3
KSAQSVLYESRNKNSVA,WADIRES,QQYHRLPLS,3.39,1/3
KQSQSVLYEARNKTSVA,WASTRES,QQYHRLPLS,3.51,2/3
KSSQSVLYESRNKNSVA,WAYTRES,QEYHRMPLS,3.74,3/3
KSSQSLLYEKRNKNSVA,WASTGES,QQYHRLPLS,4.11,2/3
KSSQSVLYESRNKNSVA,WASTRES,QQYNALPKS,4.12,2/3
KSNQSVLYESRNKNSVA,WASTRES,QQKHRLTLS,4.12,1/3
KSSQSVLYESRNKNWVA,WASTREM,QQYHRMPLS,4.21,1/3
KSCQSVLYESRVRNSVA,WASTRES,QQYHRLPLS,4.23,3/3
KSSQSVLYESRNKNSVA,WASTRES,QQYHRNIQS,4.27,2/3
KSSQSKLHESRNKNSVA,WASTRES,QQYHRLPSS,4.27,2/3
KSRQSVLYESLNKNSVA,WASTRES,QQYHRLPLS,4.83,1/3
KSSQSVLYESRNKIQVA,WASTREV,QQYHRLPLS,4.85,1/3
KSSQSVLYESRNKNSVA,WASTRQS,MQYHMLPLS,5.10,3/3
KSSQSVLYESRNDNSVA,WASTRES,QQHHRLLLS,5.12,1/3
KNIQSCLYESRNKNSVA,WASTRES,QQYHRLPLS,5.17,2/3
KSSQSVLYESRNKNSVA,WFSTRES,QQYHPLPPS,5.20,2/3
KSIQSVLYDSRNKNSVK,WASTRES,QQYHRLPLS,5.21,3/3
KSSQSVLYTCRNKNSVA,WASPRES,QQYHRLPLS,6.30,1/3
KSSQSVLYESRNKNTVI,WASTRES,QQYHRDPLS,nd,0/3
KSSQSVLYEFRNKNSVA,WASTRES,QMYHHLPLS,nd,0/3
KSDQSVLYESRNKNSCA,WASTREK,QQYHRLPLS,nd,0/3
KSSQSVLYESRDKNSVA,WASTRES,FQYNRLPLS,nd,0/3
KSHQSVLYESRIKNRVA,WASTRES,QQYHRLPLS,nd,0/3
KSSQSVLYESRNKNSVG,WASTFES,QQYVRLPLS,nd,0/3
KSSQSILYESRNKNSVA,WAITRES,QQYHRLPKS,nd,0/3
TSSQSVLYESRNKNSVW,WASTRES,QQYPRLPLS,nd,0/3
KSSQSVLYESRNKNSVA,WASWRES,QLYHRMPLS,nd,0/3
KSSQSVLAESRNKNSIA,WASERES,QQYHRLPLS,nd,0/3
KSSQSVLYESRNKNSVS,WASTRES,QQYHPLPCS,nd,0/3
KSSQSVLYESRNKNSVG,WASTREI,QQYHRYPLS,nd,0/3
KSSQSVLYESSNKNSVA,WASTRES,YFYHRLPLS,nd,0/3
KSSQSVLYESRNINSVA,WASTGES,QQYHRLELS,nd,0/3
KSSQSVLYESRYINSVA,WASTVES,QQYHRLPLS,nd,0/3
PSSQSVLYESRNKNSVA,WASTRES,QQYHRLPHY,nd,0/3
RSSQSVLYESMNKNSVA,WASTRES,QQYHRLYLS,nd,0/3
KSSGSVLEESRNKNSVN,WASTRES,QQYHRLPLS,nd,0/3
KSQQSVLYESRNKNSDA,WASTRHS,QQYHRLPLS,nd,0/3
KSSTSVLYGSRNKNSAA,WASTRES,QQYHRLPLS,nd,0/3

Excerpt, the final 4 entries:

CDR-L1,CDR-L2,CDR-L3,"mean, log10 nM",seen in
RSSQSVLYESMNKNSVA,WASTRES,QQYHRLYLS,nd,0/3
KSSGSVLEESRNKNSVN,WASTRES,QQYHRLPLS,nd,0/3
KSQQSVLYESRNKNSDA,WASTRHS,QQYHRLPLS,nd,0/3
KSSTSVLYGSRNKNSAA,WASTRES,QQYHRLPLS,nd,0/3